From patent US20120046222A1

Target: T1, GLP-1 receptor, P32301
T1 chain: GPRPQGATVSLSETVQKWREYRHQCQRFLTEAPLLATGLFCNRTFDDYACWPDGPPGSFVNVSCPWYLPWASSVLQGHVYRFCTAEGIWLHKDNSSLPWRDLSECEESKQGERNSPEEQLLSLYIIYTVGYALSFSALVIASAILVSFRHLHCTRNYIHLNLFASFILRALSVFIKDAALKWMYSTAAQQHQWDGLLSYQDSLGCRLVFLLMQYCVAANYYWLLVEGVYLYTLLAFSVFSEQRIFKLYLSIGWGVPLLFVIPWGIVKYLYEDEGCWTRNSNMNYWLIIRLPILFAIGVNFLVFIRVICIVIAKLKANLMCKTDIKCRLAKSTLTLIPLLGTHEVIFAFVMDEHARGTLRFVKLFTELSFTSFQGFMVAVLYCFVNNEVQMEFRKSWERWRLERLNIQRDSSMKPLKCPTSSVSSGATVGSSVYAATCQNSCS
Assay: cell-based or functional assay

Binder: APGTFTSDLSKQMEEEAVRLFIEWLKNK (modifications not checked) [Compound 24D]
- Cyclase GLP-1 Receptor EC50: 0.77 nM
